Measured values from article PMC6609384, “Pharmacokinetics of cucurbitacin B from Trichosanthes cucumerina L. in rats” (BMC Complementary and Alternative Medicine, 2019).

Experiments:
[1] = Tissue distribution: tissue to plasma concentration ratio (Kapp) after intravenous administration; type: in vivo, male Wistar rats; details: 0.1 mg/kg IV
Procedure: Heart, lungs, liver, stomach, spleen, small intestine, kidneys, and brain were collected after intravenous administration of cucurbitacin B 0.1 mg/kg injection. Euthanization was performed by 10% isoflurane with prolonged exposure at 1, 2, and 4 h after administration, and death was confirmed by exsanguination. Before organ removal, 1 mL of blood was withdrawn by cardiac puncture procedure, centrifuged at 3000×g for 10 min to obtain plasma, and stored at − 20 °C until further analysis. Unnecessary connective tissue was removed from the isolated organs by surgical blade and scissor. Excessive blood within the removed organs was washed twice by 0.9% saline solution at the temperature below 4 °C.
Internal organs including heart, lungs, liver, stomach, spleen, small intestine, kidneys, mammary glands, and brain were weighed out in 50 mg aliquots and then mixed with 200 μL of methanol containing 25 ng of glycyrrhizic acid. The mixture was later homogenized in an ice bath for 10 min and then centrifuged at 10,000×g for 10 min. One hundred fifty microliter of supernatant from each sample was collected for further LC-MS/MS analysis.
All of these pharmacokinetic parameters were presented as mean ± SD. For the tissue distribution study, the extent of cucurbitacin B that resided in each organ was depicted as tissue to plasma concentration ratio (Kapp). This parameter was computed by comparing concentration of cucurbitacin B in each internal organ to that obtained from plasma with the identical time point. […] All statistical analyses were performed by using IBM SPSS Statistics version 22 (Armonk, United States).

[2] = Pharmacokinetic experiment: cucurbitacin B plasma level after intravenous and oral administration (LC-MS/MS, non-compartmental analysis); type: in vivo, male Wistar rats; details: for Cmax: rat plasma
Procedure: Cucurbitacin B solution in DMSO/water for injection was administered to the rats at different doses and routes (intravenous cucurbitacin B at 0.1 mg/kg, and oral cucurbitacin B at 2–4 mg/kg). All cucurbitacin B solution given to the animals was prepared freshly prior to the experiment. Each rat was anesthetized with 10% isoflurane by chamber induction method before intravenous administration or blood collection. Both approaches were conducted via lateral tail vein. The dose of cucurbitacin B for injection was calculated based on amount of cucurbitacin B in the solution to obtain an equivalent dose of 0.1 mg/kg. In the case of oral administration, a gavage needle was used to supply the pre-specified dose of cucurbitacin B at 2, and 4 mg/kg. For blood collection, pre-heparinized needles and syringes were used during the blood sampling process. Approximately 300 μL of blood sample was collected serially after cucurbitacin B administration at different time points as follows: 0.083 (5 min), 0.25 (15 min), 0.5 (30 min), 1, 2, 4, 8, 16, and 24 h. Collected blood samples were then centrifuged at 3000×g for 10 min to obtain plasma, and stored at − 20 °C until further process. After each blood sampling session, the rat was placed in the metabolic cage, then urine and feces were segregated and collected automatically by the functionality of cages at distinct periods of time comprehensive of 0–24, and 24–48 h. Measurement of urine volume and feces weight were completed right after sample collection, then they were stored at − 20 °C until analysis.
Protein precipitation was the extraction procedure used in this study. In brief, plasma 50 μL was treated with 200 μL of methanol containing 25 ng of glycyrrhizic acid as the internal standard. The samples were mixed for 10 min and then centrifuged at 10,000×g for 10 min. One hundred fifty microliter of supernatant from each sample was collected for further LC-MS/MS analysis.
LC-MS/MS was used to determine cucurbitacin B level in biological samples. Nexera UHPLC (Kyoto, Japan) consisting of a vacuum degasser, a binary pump, an autosampler, and a column thermostat equipped with Shimadzu 8060 LCMS (Kyoto, Japan) was applied for this experiment. Control of both liquid chromatography and mass spectrometer was operated by LabSolution version 5.86 software (Kyoto, Japan). The mobile phase used in the system comprised of 0.2% v/v formic acid in water (pH 2.5), and methanol. Gradient phase elution was performed in every sample analysis. […] The flow rate used in the system was 0.3 mL/min with an injection volume of 15 μL. C18 reversed phase column, model Phenomenex Synergi Fusion-RP (Torrance, United States) equipped with Guard C18 column, model Phenomenex SecurityGuard Fusion-RP (Torrance, United States) was used for compound separation process. Column oven was maintained at 40 °C throughout the analytical procedure.
Biochemical markers including AST, ALT, and creatinine were presented as mean ± standard deviation (SD). Comparison of these markers between pre- and post-treatment groups was conducted by paired sample t-test in which statistical difference was decided at p-value < 0.05. Cucurbitacin B plasma levels obtained from LC-MS/MS analysis were further analyzed by constructing the curve between the calculated concentrations (μg/L) and blood sampling time points (h). Cucurbitacin B plasma concentrations in the plasma concentration-time curve were reported as mean ± SD. Pharmacokinetic parameters were computed by PK solutions 2.0 software (Montrose, United States) with non-compartmental analysis. The pharmacokinetic parameters were listed as follows: maximum plasma concentration (Cmax), time to maximum plasma concentration (Tmax), area under the curve from time zero to last sampling time point (AUC0-t), area under the curve from time zero to infinity (AUC0-inf), absolute oral bioavailability (F), elimination half-life (t1/2), volume of distribution (Vd), clearance (CL), and mean residence time (MRT). […]

[3] = 0.1 mg/kg IV, listed as cucurbitacin B

Cucurbitacin B
tissue to plasma concentration ratio (Kapp), liver, stomach and small intestine ([1]; 1 h): 4–14 times
tissue to plasma concentration ratio (Kapp), lung ([1]; 1 h): about 60 times
tissue to plasma concentration ratio (Kapp), spleen ([1]; 1 h): about 60 times
tissue to plasma concentration ratio (Kapp), liver ([1]; 2 h): 23.72
tissue to plasma concentration ratio (Kapp), lung ([1]; 2 h): around 240 times
tissue to plasma concentration ratio (Kapp), spleen ([1]; 2 h): around 240 times
tissue to plasma concentration ratio (Kapp), liver ([1]; 4 h): 38.29
cucurbitacin B concentration in brain and heart ([1]; LLOQ 0.1 μg/L): lower than the LLOQ
AUC0-inf ([2]; 0.1 mg/kg IV): 17.95 ± 13.21 µg·h/L
AUC0-t ([2]; 0.1 mg/kg IV): 13.92 ± 11.11 µg·h/L
CL (clearance) ([2]; 0.1 mg/kg IV): 7.24 ± 2.92 L/h/kg
MRT ([2]; 0.1 mg/kg IV): 6.03 ± 2.93 h
Vd (volume of distribution) ([2]; 0.1 mg/kg IV): 51.65 ± 39.16 L/kg
t1/2 (elimination half-life) ([2]; 0.1 mg/kg IV): 5.08 ± 2.87 h
CL (clearance) [2, 3]: approximately 7.24 L/h/kg
Vd (volume of distribution) [2, 3]: about 51.65 L/kg
t1/2 (elimination half-life) [2, 3]: approximately 5.08 ± 2.87 h
AUC0-inf ([2]; 2 mg/kg PO): 25.33 ± 12.13 µg·h/L
AUC0-t ([2]; 2 mg/kg PO): 15.10 ± 3.57 µg·h/L
MRT ([2]; 2 mg/kg PO): 9.95 ± 12.27 h
Tmax ([2]; 2 mg/kg PO): 30 ± 0 min
F (absolute oral bioavailability) ([2]; 2 mg/kg PO vs 0.1 mg/kg IV): 10.25 ± 7.29%
Cmax ([2]; 2 mg/kg PO): 9.70 ± 3.95 µg/L
Cmax ([2]; 2 mg/kg PO, listed as cucurbitacin B): approximately 9.70 μg/L
cucurbitacin B concentration in plasma ([2]; 2 mg/kg oral, within 8 h): 1.09 µg/L
AUC0-inf ([2]; 4 mg/kg PO): 52.42 ± 29.58 µg·h/L
AUC0-t ([2]; 4 mg/kg PO): 45.22 ± 10.14 µg·h/L
MRT ([2]; 4 mg/kg PO): 5.50 ± 2.28 h
Tmax ([2]; 4 mg/kg PO): 36 ± 13.2 min
F (absolute oral bioavailability) ([2]; 4 mg/kg PO vs 0.1 mg/kg IV): 10.25 ± 5.63%
Cmax ([2]; 4 mg/kg PO): 31.24 ± 10.50 µg/L
Cmax ([2]; 4 mg/kg PO, listed as cucurbitacin B): ~31.24 µg/L
cucurbitacin B concentration in plasma ([2]; 4 mg/kg oral, within 8 h): 2.66 µg/L
time to highest concentration in plasma ([2]; after oral doses, 2 and 4 mg/kg): ≤ 1 h
time to reach maximum concentration ([2]; after oral dosing, 2–4 mg/kg): ≤ 30 min
absolute oral bioavailability ([2]; both oral doses, 2 and 4 mg/kg): approximately 10%
cucurbitacin B concentration in plasma ([2]; both oral doses, at 16 h, LLOQ 0.1 μg/L): could not be further detected
AUC0-inf after 4 mg/kg oral dosing relative to 2 mg/kg ([2]; oral): 2 fold
maximum concentration in plasma after normalization by dose ([2]; oral 2–4 mg/kg): 4.85 to 7.81 µg/L
